Patent US20080299101A1, “Cancer Treatment Resistance and Agents Modulating Such Resistance” (CENTRE NATIONAL DE LA RECHERCHE SCIENTIFIQUE (CNRS INSTITUT …, priority 2004, published 2008)
Where two headings read alike, the source gives them in different places.

How the values were obtained:
[1] = system: HCT116/R1; details: for Cytotoxicity of oxaliplatin* in presence of actD 0.04 nM: actD 0.04 nM preincubation; for Cytotoxicity of oxaliplatin* in presence of actD 0.12 nM: actD 0.12 nM preincubation; for Cytotoxicity of oxaliplatin* in presence of actD 0.36 nM: actD 0.36 nM preincubation
Procedure: (§1) Cytotoxicity assays were performed by seeding 4000 cells per well in 96 well plates. […] Cytotoxicity measurements were carried out using the WST-1 colorimetric assay (Boehringer Mannheim) according to the manufacturer's recommendation.

[2] = system: HCT116/R2; details: for Cytotoxicity of oxaliplatin* in presence of actD 0.04 nM: actD 0.04 nM preincubation; for Cytotoxicity of oxaliplatin* in presence of actD 0.12 nM: actD 0.12 nM preincubation; for Cytotoxicity of oxaliplatin* in presence of actD 0.36 nM: actD 0.36 nM preincubation
Procedure: as §1

[3] = system: HCT116/S; details: for Cytotoxicity of oxaliplatin* in presence of actD 0.04 nM: actD 0.04 nM preincubation; for Cytotoxicity of oxaliplatin* in presence of actD 0.12 nM: actD 0.12 nM preincubation; for Cytotoxicity of oxaliplatin* in presence of actD 0.36 nM: actD 0.36 nM preincubation
Procedure: as §1

[4] = system: HCT116/S (parental)
[5] = system: HCT116/R1
[6] = system: HCT116/R2
[7] = system: HCT116/Rev1
[8] = system: HCT116/Rev2
[9] = system: SW48/S
[10] = system: SW48/R1
[11] = system: SW48/R2
[12] = system: SW480/S
[13] = system: SW480/R
[14] = system: SW620/S
[15] = system: SW620/R

Cc1c2oc3c(C)ccc(C(=O)N[C@@H]4C(=O)N[C@H](C(C)C)C(=O)N5CCC[C@H]5C(=O)N(C)CC(=O)N(C)[C@@H](C(C)C)C(=O)O[C@@H]4C)c3nc-2c(C(=O)N[C@@H]2C(=O)N[C@H](C(C)C)C(=O)N3CCC[C@H]3C(=O)N(C)CC(=O)N(C)[C@@H](C(C)C)C(=O)O[C@@H]2C)c(N)c1=O [actD, actinomycin D]
Cytotoxicity of oxali + actD 0.36 nM ([1]; oxaliplatin 0 μM (actD alone), actD 0.36 nM): 37.3%

oxaliplatin
Cytotoxicity of oxaliplatin ([1]; oxaliplatin 1.25 μM): 17.2%
Cytotoxicity of oxaliplatin* in presence of actD 0.04 nM ([1]; oxaliplatin 1.25 μM): 12.2%
Cytotoxicity of oxaliplatin* in presence of actD 0.12 nM ([1]; oxaliplatin 1.25 μM): 22.6%
Cytotoxicity of oxaliplatin* in presence of actD 0.36 nM ([1]; oxaliplatin 1.25 μM): 24.9%
Cytotoxicity of oxaliplatin ([1]; oxaliplatin 2.5 μM): 17.6%
Cytotoxicity of oxaliplatin* in presence of actD 0.04 nM ([1]; oxaliplatin 2.5 μM): 24.2%
Cytotoxicity of oxaliplatin* in presence of actD 0.12 nM ([1]; oxaliplatin 2.5 μM): 35.7%
Cytotoxicity of oxaliplatin* in presence of actD 0.36 nM ([1]; oxaliplatin 2.5 μM): 46.3%
Cytotoxicity of oxaliplatin ([1]; oxaliplatin 5 μM): 47%
Cytotoxicity of oxaliplatin* in presence of actD 0.04 nM ([1]; oxaliplatin 5 μM): 44.1%
Cytotoxicity of oxaliplatin* in presence of actD 0.12 nM ([1]; oxaliplatin 5 μM): 47.4%
Cytotoxicity of oxaliplatin* in presence of actD 0.36 nM ([1]; oxaliplatin 5 μM): 60.8%
Cytotoxicity of oxaliplatin ([1]; oxaliplatin 10 μM): 67%
Cytotoxicity of oxaliplatin* in presence of actD 0.04 nM ([1]; oxaliplatin 10 μM): 62.2%
Cytotoxicity of oxaliplatin* in presence of actD 0.12 nM ([1]; oxaliplatin 10 μM): 65.5%
Cytotoxicity of oxaliplatin* in presence of actD 0.36 nM ([1]; oxaliplatin 10 μM): 66.4%
Cytotoxicity of oxaliplatin ([1]; oxaliplatin 20 μM): 65.8%
Cytotoxicity of oxaliplatin* in presence of actD 0.04 nM ([1]; oxaliplatin 20 μM): 65.1%
Cytotoxicity of oxaliplatin* in presence of actD 0.12 nM ([1]; oxaliplatin 20 μM): 68.7%
Cytotoxicity of oxaliplatin* in presence of actD 0.36 nM ([1]; oxaliplatin 20 μM): 68.9%
Cytotoxicity of oxaliplatin ([2]; oxaliplatin 2.5 μM): 24.7%
Cytotoxicity of oxaliplatin* in presence of actD 0.04 nM ([2]; oxaliplatin 2.5 μM): 8.3%
Cytotoxicity of oxaliplatin* in presence of actD 0.12 nM ([2]; oxaliplatin 2.5 μM): 18.1%
Cytotoxicity of oxaliplatin* in presence of actD 0.36 nM ([2]; oxaliplatin 2.5 μM): 39.8%
Cytotoxicity of oxaliplatin ([2]; oxaliplatin 5 μM): 31.7%
Cytotoxicity of oxaliplatin* in presence of actD 0.04 nM ([2]; oxaliplatin 5 μM): 31.2%
Cytotoxicity of oxaliplatin* in presence of actD 0.12 nM ([2]; oxaliplatin 5 μM): 38.3%
Cytotoxicity of oxaliplatin* in presence of actD 0.36 nM ([2]; oxaliplatin 5 μM): 57.4%
Cytotoxicity of oxaliplatin ([2]; oxaliplatin 10 μM): 55.6%
Cytotoxicity of oxaliplatin* in presence of actD 0.04 nM ([2]; oxaliplatin 10 μM): 57.8%
Cytotoxicity of oxaliplatin* in presence of actD 0.12 nM ([2]; oxaliplatin 10 μM): 63.4%
Cytotoxicity of oxaliplatin* in presence of actD 0.36 nM ([2]; oxaliplatin 10 μM): 67.4%
Cytotoxicity of oxaliplatin ([2]; oxaliplatin 20 μM): 70.4%
Cytotoxicity of oxaliplatin* in presence of actD 0.04 nM ([2]; oxaliplatin 20 μM): 63.9%
Cytotoxicity of oxaliplatin* in presence of actD 0.12 nM ([2]; oxaliplatin 20 μM): 67.8%
Cytotoxicity of oxaliplatin* in presence of actD 0.36 nM ([2]; oxaliplatin 20 μM): 75.6%
Cytotoxicity of oxaliplatin ([2]; oxaliplatin 40 μM): 74.2%
Cytotoxicity of oxaliplatin* in presence of actD 0.04 nM ([2]; oxaliplatin 40 μM): 74.6%
Cytotoxicity of oxaliplatin* in presence of actD 0.12 nM ([2]; oxaliplatin 40 μM): 72.3%
Cytotoxicity of oxaliplatin* in presence of actD 0.36 nM ([2]; oxaliplatin 40 μM): 78.7%
Cytotoxicity of oxaliplatin ([3]; oxaliplatin 0.16 μM): 18.5%
Cytotoxicity of oxaliplatin* in presence of actD 0.04 nM ([3]; oxaliplatin 0.16 μM): 25.1%
Cytotoxicity of oxaliplatin* in presence of actD 0.12 nM ([3]; oxaliplatin 0.16 μM): 34.5%
Cytotoxicity of oxaliplatin* in presence of actD 0.36 nM ([3]; oxaliplatin 0.16 μM): 41.9%
Cytotoxicity of oxaliplatin ([3]; oxaliplatin 0.31 μM): 40.3%
Cytotoxicity of oxaliplatin* in presence of actD 0.04 nM ([3]; oxaliplatin 0.31 μM): 50.7%
Cytotoxicity of oxaliplatin* in presence of actD 0.12 nM ([3]; oxaliplatin 0.31 μM): 60.6%
Cytotoxicity of oxaliplatin* in presence of actD 0.36 nM ([3]; oxaliplatin 0.31 μM): 42.6%
Cytotoxicity of oxaliplatin ([3]; oxaliplatin 0.62 μM): 61.6%
Cytotoxicity of oxaliplatin* in presence of actD 0.04 nM ([3]; oxaliplatin 0.62 μM): 72.2%
Cytotoxicity of oxaliplatin* in presence of actD 0.12 nM ([3]; oxaliplatin 0.62 μM): 76.8%
Cytotoxicity of oxaliplatin* in presence of actD 0.36 nM ([3]; oxaliplatin 0.62 μM): 54.7%
Cytotoxicity of oxaliplatin ([3]; oxaliplatin 1.25 μM): 74.4%
Cytotoxicity of oxaliplatin* in presence of actD 0.04 nM ([3]; oxaliplatin 1.25 μM): 77.5%
Cytotoxicity of oxaliplatin* in presence of actD 0.12 nM ([3]; oxaliplatin 1.25 μM): 80.1%
Cytotoxicity of oxaliplatin* in presence of actD 0.36 nM ([3]; oxaliplatin 1.25 μM): 49.3%
Cytotoxicity of oxaliplatin ([3]; oxaliplatin 2.5 μM): 76.7%
Cytotoxicity of oxaliplatin* in presence of actD 0.04 nM ([3]; oxaliplatin 2.5 μM): 77.3%
Cytotoxicity of oxaliplatin* in presence of actD 0.12 nM ([3]; oxaliplatin 2.5 μM): 76.8%
Cytotoxicity of oxaliplatin* in presence of actD 0.36 nM ([3]; oxaliplatin 2.5 μM): 35.1%
Oxaliplatin resistance (fold/parental line) [4]: 1 fold/parental line
Oxaliplatin resistance (fold/parental line) [5]: 28 fold/parental line
Oxaliplatin resistance (fold/parental line) [6]: 68 fold/parental line
Oxaliplatin resistance (fold/parental line) [7]: 1 fold/parental line
Oxaliplatin resistance (fold/parental line) [8]: 17 fold/parental line
Oxaliplatin resistance (fold/parental line) [9]: 1 fold/parental line
Oxaliplatin resistance (fold/parental line) [10]: 26 fold/parental line
Oxaliplatin resistance (fold/parental line) [11]: 73 fold/parental line
Oxaliplatin resistance (fold/parental line) [12]: 1 fold/parental line
Oxaliplatin resistance (fold/parental line) [13]: 63 fold/parental line
Oxaliplatin resistance (fold/parental line) [14]: 1 fold/parental line
Oxaliplatin resistance (fold/parental line) [15]: 22 fold/parental line
